# Measured values taken from publication PMC6167311, “Structure of the NDH-2 – HQNO inhibited complex provides molecular insight into quinone-binding site inhibitors” (Biochimica et Biophysica Acta, 2018).
# Protein sequences, listed by entry. Tags and fused reporters are not part of them.
# UniProt F5L3B8, entry or part of it: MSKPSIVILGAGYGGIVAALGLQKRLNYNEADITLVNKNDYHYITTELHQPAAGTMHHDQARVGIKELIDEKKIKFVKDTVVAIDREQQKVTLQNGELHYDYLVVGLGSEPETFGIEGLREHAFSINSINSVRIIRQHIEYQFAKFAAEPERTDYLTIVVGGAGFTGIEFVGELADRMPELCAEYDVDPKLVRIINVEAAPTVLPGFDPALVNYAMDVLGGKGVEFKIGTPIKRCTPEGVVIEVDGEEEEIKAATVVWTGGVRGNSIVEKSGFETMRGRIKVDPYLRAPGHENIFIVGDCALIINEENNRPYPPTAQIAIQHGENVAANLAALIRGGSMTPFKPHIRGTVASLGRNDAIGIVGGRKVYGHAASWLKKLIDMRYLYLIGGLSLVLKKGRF
# Biological target: T1, NDH-2 (type II NADH:quinone oxidoreductase) (Caldalkalibacillus thermarum, UniProt F5L3B8)
# T1 construct: gene CathTA2_0279
compound,measurement,value
Cc1cc2nc3c(=O)[nH]c(=O)nc-3n(C[C@H](O)[C@H](O)[C@H](O)COP(=O)(O)OP(=O)(O)OC[C@H]3O[C@@H](n4cnc5c(N)ncnc54)[C@H](O)[C@@H]3O)c2cc1C [FAD],"crystal structure at 2.8 Å (FAD modelled, with HQNO)","An overview of the NDH-2–HQNO complex structure showing the location of the membrane interface (dashed-line), FAD (blue) and HQNO (yellow)."
